Measurements from PMC6983093 (2019).

Key:
[1] = 25 °C; for Solubility in chloroform: ET(30) 39.1; for Solubility in diethyl ether: ET(30) 34.5; for Solubility in ethanol: ET(30) 51.9; for Solubility in ethyl acetate: ET(30) 38.1; for Solubility in n-hexane: ET(30) 31.0; for Solubility in toluene: ET(30) 33.9; for Solubility in water: ET(30) 63.1
[2] = Thermogravimetric analysis (thermal stability, TG); settings: heating 10 °C min^−1, air atmosphere

Row | Tonset (onset of the thermal degradation) [2] | Substance | Solubility in chloroform [1] | Solubility in diethyl ether [1] | Solubility in ethanol [1] | Solubility in ethyl acetate [1] | Solubility in n-hexane [1] | Solubility in toluene [1] | Solubility in water [1]
1 | – | L-Valine Propyl Ester Ketoprofenate [[L-ValOPr][KETO]] | + (soluble >100 g L^−1) | +/− (partially soluble 33–100 g L^−1) | + (soluble >100 g L^−1) | + (soluble >100 g L^−1) | − (insoluble <33 g L^−1) | + (soluble >100 g L^−1) | − (insoluble <33 g L^−1)
2 | 95.7 °C | L-Leucine Ethyl Ester Ketoprofenate | +/− (partially soluble 33–100 g L^−1) | − (insoluble <33 g L^−1) | +/− (partially soluble 33–100 g L^−1) | − (insoluble <33 g L^−1) | − (insoluble <33 g L^−1) | + (soluble >100 g L^−1) | − (insoluble <33 g L^−1)
3 | – | L-Valine Butyl Ester Ketoprofenate | + (soluble >100 g L^−1) | − (insoluble <33 g L^−1) | + (soluble >100 g L^−1) | − (insoluble <33 g L^−1) | − (insoluble <33 g L^−1) | + (soluble >100 g L^−1) | − (insoluble <33 g L^−1)
4 | – | L-Valine Isopropyl Ester Ketoprofenate [[L-ValOiPr][KETO]] | +/− (partially soluble 33–100 g L^−1) | + (soluble >100 g L^−1) | + (soluble >100 g L^−1) | − (insoluble <33 g L^−1) | − (insoluble <33 g L^−1) | + (soluble >100 g L^−1) | − (insoluble <33 g L^−1)
5 | – | L-Valine Ethyl Ester Ketoprofenate [[L-ValOEt][KETO]] | + (soluble >100 g L^−1) | +/− (partially soluble 33–100 g L^−1) | + (soluble >100 g L^−1) | − (insoluble <33 g L^−1) | − (insoluble <33 g L^−1) | − (insoluble <33 g L^−1) | − (insoluble <33 g L^−1)
